# Earlier results as cited in patent US10751387B2, “Pharmacological therapy for neuronopathic Gaucher disease” (priority 2016, dated 2020).
# Tested on: cells
# Conditions: cited from earlier work
substance,measurement,value
Ryanodine,Toxicity to cells,toxic to cells
